Experimental data from patent US20250017942A1, “Prevention and treatment of osteoarticular diseases by inhibiting acetylcholinesterase” (priority 2021, published 2025).
Counter-ions that a name gives are not always drawn.

Amino acid sequences for entries named in this document (tags omitted). Residues count along the entry.
UniProt P37136, 32-614 limits assumed: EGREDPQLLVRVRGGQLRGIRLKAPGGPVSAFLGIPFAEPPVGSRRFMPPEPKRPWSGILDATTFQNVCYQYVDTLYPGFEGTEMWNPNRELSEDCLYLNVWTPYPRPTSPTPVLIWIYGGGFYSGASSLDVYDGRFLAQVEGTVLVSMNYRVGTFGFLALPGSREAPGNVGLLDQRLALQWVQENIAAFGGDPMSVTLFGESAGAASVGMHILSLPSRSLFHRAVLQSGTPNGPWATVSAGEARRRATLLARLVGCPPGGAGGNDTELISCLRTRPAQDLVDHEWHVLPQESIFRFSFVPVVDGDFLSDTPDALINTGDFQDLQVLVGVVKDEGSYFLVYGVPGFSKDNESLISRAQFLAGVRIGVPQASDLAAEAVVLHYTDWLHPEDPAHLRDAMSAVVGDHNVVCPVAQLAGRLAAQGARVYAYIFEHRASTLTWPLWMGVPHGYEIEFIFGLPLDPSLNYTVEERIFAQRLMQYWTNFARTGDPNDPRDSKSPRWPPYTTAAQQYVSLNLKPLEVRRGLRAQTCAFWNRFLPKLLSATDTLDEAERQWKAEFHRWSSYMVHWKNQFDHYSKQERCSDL
UniProt Q9JKC1, 24-597 limits assumed: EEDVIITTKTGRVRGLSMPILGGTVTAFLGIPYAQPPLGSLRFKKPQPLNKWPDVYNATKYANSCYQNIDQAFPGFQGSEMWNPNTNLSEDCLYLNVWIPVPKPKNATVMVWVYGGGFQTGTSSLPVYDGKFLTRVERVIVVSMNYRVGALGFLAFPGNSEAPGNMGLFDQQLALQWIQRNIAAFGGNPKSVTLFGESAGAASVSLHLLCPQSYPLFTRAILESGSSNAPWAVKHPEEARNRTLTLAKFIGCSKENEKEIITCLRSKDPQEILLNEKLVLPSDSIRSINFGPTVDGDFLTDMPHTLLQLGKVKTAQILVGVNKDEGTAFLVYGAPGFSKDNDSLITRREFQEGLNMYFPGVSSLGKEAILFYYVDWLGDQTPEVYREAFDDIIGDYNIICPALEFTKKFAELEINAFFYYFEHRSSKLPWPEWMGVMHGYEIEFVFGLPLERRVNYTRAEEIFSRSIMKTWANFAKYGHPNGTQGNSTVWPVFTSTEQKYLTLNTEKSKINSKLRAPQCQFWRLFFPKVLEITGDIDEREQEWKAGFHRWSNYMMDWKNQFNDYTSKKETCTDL

How the values were obtained:
AChE = AChE (Rattus norvegicus, UniProt P37136); assay: AChE inhibition by huperzine A-tacrine hybrids and HA fragment monomers
BuChE = BuChE (Rattus norvegicus, UniProt Q9JKC1); assay: In vitro BuChE inhibition by tacrine and bis(n)-tacrine analogs (Table 1); conditions: read-out: BuChE IC50
RAW 264.7 cells = assay: RANKL-induced osteoclastogenesis of RAW 264.7 cells; assay type: cell-based, mouse; conditions: for Osteoclastogenesis: RAW 264.7, RANKL 15 ng/ml 3 days, 0.1, 0.5 and 1 μM (FIG. 9); for Osteoclastogenic differentiation of RAW 264.7 cells: all at 1 μM (FIG. 10 A-H); for mRNA expression of MMP9, RANK, TRAP (osteoclast markers) compared with alendronate: all at 1 μM, qPCR (FIG. 10 I)
Balb/C female mice = assay: OVX (ovariectomy)-induced bone loss in Balb/C mice, micro-CT; conditions: abdominal injection 0.2 or 2 mg/kg body weight/day for 4 weeks, starting 4 weeks after OVX (FIG. 8)
[1] = tested on: murine mesenchymal stem cells (mMSCs); assay: Mineralization of murine mesenchymal stem cells, Alizarin Red S staining; conditions: mMSCs, 0.1, 0.5, 1 μM (FIG. 12)
[2] = tested on: spontaneously hypertensive rats (SHR); assay: DAB staining for acetylcholinesterase in joint sections of SHR rats (osteoarthritis model); conditions: osteoarthritic SHR rats, abdominal injection 2 mg/kg body weight/day for one month
ATDC5 cells = assay: IL-1β-stimulated ATDC5 cells, marker expression by qPCR; assay type: cell-based, mouse
[3] = Toxicity and therapeutic index compared with tacrine

For `CC1=CC2Cc3nc4cccc(F)c4c(N)c3C(C1)C2` (centres unmarked), the “Potency for AChE relative to HA” value (AChE) was 21 fold.
In the case of `c1ccc2c(NCCCCCCCCCNc3c4c(nc5ccccc35)CCCC4)c3c(nc2c1)CCCC3`, the IC50 (BuChE) is reported as 0.19 µM.
With `COc1cc2c(cc1OC)C(=O)C(CC1CCN(Cc3ccccc3)CC1)C2` (centres unmarked) the “Cell-cell fusion of osteoclast precursors” value (RAW 264.7 cells; RAW 264.7, 15 ng/ml RANKL, donepezil 1 μM pre- or post-treatment for 2 days (FIG. 7)) was “inhibited cell-cell fusion of osteoclast precursors”, the Osteoclastogenesis (RAW 264.7 cells) was “suppressed osteoclastogenesis in a dose-dependent manner” and the “Osteoclastogenic differentiation of RAW 264.7 cells” value (from here on “Osteoclastogenic differentiation”) (RAW 264.7 cells) was “significantly suppressed”. The “mRNA expression of MMP9, RANK, TRAP (osteoclast markers) compared with alendronate” value (RAW 264.7 cells) was “comparable and superior to alendronate”, the “OVX-induced bone loss (micro-CT of tibia primary spongiosa and lumbar vertebral body)” value (Balb/C female mice) was “dose-dependent osteoprotection, rescuing OVX (ovariectomy)-induced bone loss” and the “Bone mineralization (Alizarin Red S staining)” value (shortened to “Bone mineralization”) [1] was “promotive effects of donepezil and bis(3)-tacrine (B3C) were observed at the concentration of 1 μM”. For the same compound, the “Acetylcholinesterase expression in joint sections (DAB staining)” value [2] was “a decrease in acetylcholinesterase expression could be observed”, the “p16 expression (senescence marker) after IL-1β stimulation” value (ATDC5 cells; ATDC5 cells (FIG. 3C)) was “decreased” and the “Anabolic (Agg, Sox9, Col2a1) and catabolic (MMP13) factors after IL-1β stimulation” value (ATDC5 cells; ATDC5 cells, 10 ng/ml IL-1β, 24 h, qPCR (FIG. 3B)) was “increased the anabolic and decreased the catabolic factors”.
For `c1ccc2c(NCCCNc3c4c(nc5ccccc35)CCCC4)c3c(nc2c1)CCCC3`, the Osteoclastogenesis (RAW 264.7 cells) was “suppressed osteoclastogenesis in a dose-dependent manner”, the “Osteoclastogenic differentiation” value (RAW 264.7 cells) was “particularly pronounced” and the “mRNA expression of MMP9, RANK, TRAP (osteoclast markers) compared with alendronate” value (RAW 264.7 cells) was “comparable and superior to alendronate”. For the same compound, the “Bone mineralization” value [1] was “promotive effects of donepezil and bis(3)-tacrine (B3C) were observed at the concentration of 1 μM”.
In the case of `O=c1ccc2c([nH]1)CCCC2NCCCCCCCCCCNc1c2c(nc3ccccc13)CCCC2` (centres unmarked), the Osteoclastogenesis (RAW 264.7 cells) is reported as “suppressed osteoclastogenesis in a dose-dependent manner”, the “Bone mineralization” value [1] is reported as “promoted bone mineralization, with their promotion strength positively correlated with drug concentration” and the “Pro-inflammatory cytokine expression after IL-1β stimulation” value (ATDC5 cells; ATDC5 cells, 10 ng/ml IL-1β, 24 h, qPCR (FIG. 3A)) is reported as “down-regulating key pro-inflammatory cytokines including TNF-alpha”.
For `COc1ccc2c3c1OC1CC(O)C=CC31CCN(C)C2` (centres unmarked), the Osteoclastogenesis (RAW 264.7 cells) was “donepezil and four dimers, rather galantamine, suppressed osteoclastogenesis” and the “Osteoclastogenic differentiation” value (RAW 264.7 cells) was “did not”.
With `c1ccc2c(NCCCCCCCNc3c4c(nc5ccccc35)CCCC4)c3c(nc2c1)CCCC3` the Osteoclastogenesis (RAW 264.7 cells) was “suppressed osteoclastogenesis in a dose-dependent manner” and the “Toxicity compared with tacrine” value [3] was “less toxic than tacrine”.
For `O=c1ccc2c([nH]1)CCC[C@@H]2NCCCCCCCCCCCCN[C@H]1CCCc2[nH]c(=O)ccc21` [E12E, (S,S)-(−)-N, N′-di-5′-(5′, 6′7′,8′-tetrahydroquinolin-2-onyl)-1,12-diaminododecane, bis-hydrochloride], the “Bone mineralization” value [1] was “promoted bone mineralization, with their promotion strength positively correlated with drug concentration”.
